We go through two compounds from US20230295106A1 (priority 2019, published 2023).

By UniProt entry, the sequences of proteins in these tests, tags left out.
UniProt P28223, whole entry: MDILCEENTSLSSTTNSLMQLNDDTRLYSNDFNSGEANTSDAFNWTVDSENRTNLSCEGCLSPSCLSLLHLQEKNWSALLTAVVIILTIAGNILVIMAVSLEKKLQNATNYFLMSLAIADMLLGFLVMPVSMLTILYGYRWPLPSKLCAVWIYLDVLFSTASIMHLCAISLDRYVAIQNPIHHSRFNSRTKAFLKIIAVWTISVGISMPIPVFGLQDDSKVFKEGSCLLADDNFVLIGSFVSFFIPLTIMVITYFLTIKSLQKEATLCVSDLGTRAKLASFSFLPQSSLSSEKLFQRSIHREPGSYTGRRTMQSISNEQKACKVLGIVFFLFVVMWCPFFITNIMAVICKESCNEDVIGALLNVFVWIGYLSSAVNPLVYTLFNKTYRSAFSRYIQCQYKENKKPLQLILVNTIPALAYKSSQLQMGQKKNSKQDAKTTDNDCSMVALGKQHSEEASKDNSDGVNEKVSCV

Assay [1] has as its target T1, 5-HT2A (Homo sapiens, UniProt P28223). The assay is described as follows: Serotonin 5-HT2A in vitro cellular IPOne agonism assay (HTRF). Type of assay: cell-based. The conditions noted are these: read-out: 5-HT2A IPOne Agonism Activity; CHO-K1 cells, 60 min at 37° C. On the technique in general: Time-resolved FRET reads energy transfer from a long-lived donor to a nearby acceptor.

Assay [2] concerns the target T1, 5-HT2A. The assay can be described thus: Serotonin 5-HT2A in vitro radioligand binding competition assay ([3H]-DOI). The conditions noted are these: read-out: 5-HT2A Radioligand Binding Activity; competition with [3H]-DOI, membrane extracts.
A further assay concerns rat cortical neurons. The assay can be described thus: Neurite outgrowth in primary neuronal cultures assay. Also noted: key to the marks not given beside the values. The settings on record: 72 h, vs DMSO control, at 10 μM or less.

Turning to `CCN(CC)C(=O)C1C=C(c2c(OC)cccc2OC)CN(C)C1` (single isomer, unassigned) [Compound 3], the EC50 at 5-HT2A [1] was in the range of 0.101 to 1 µM. In addition, the IC50 on 5-HT2A [2] fell in the range of 1 to 10 µM. In addition, in the assay with rat cortical neurons, the “Increase in Neurite Length” value is “B” and the “Increase in Neurite Number” value is reported as “B”.

Take `CCN(CC)C(=O)C1C=C(c2c(OC)cccc2OC)CN(C)C1` (single isomer, unassigned) [Compound 4]: the EC50 on 5-HT2A [1] fell in the range of 0.101 to 1 µM. The IC50 at 5-HT2A [2] was 1 to 10 µM. Further, in the assay on rat cortical neurons, the “Increase in Neurite Length” value is “A” and the “Increase in Neurite Number” value is “A”.
